In PubChem BioAssay (NCATS):
The list shows a part of the results, in another mix than the full data. Inconclusive results are not listed. For some of these results: Results with a measured potency or affinity are listed apart. Activity calls are given as the source filed them. Unless noted, calls follow the shape of the dose curve; as a rule, active = well fitted curve in the direction sought with a large enough effect; inconclusive = small, poorly fitted or top-dose-only effect, or another doubt; inactive = no such curve, though single readings can be large; an effect the other way counts as inactive or inconclusive.

Chains of the proteins cited; added tags and fusions are not shown. Lines headed by an entry give the natural chain unless they say otherwise; changes in a name come on top.
UniProt Q96QE3: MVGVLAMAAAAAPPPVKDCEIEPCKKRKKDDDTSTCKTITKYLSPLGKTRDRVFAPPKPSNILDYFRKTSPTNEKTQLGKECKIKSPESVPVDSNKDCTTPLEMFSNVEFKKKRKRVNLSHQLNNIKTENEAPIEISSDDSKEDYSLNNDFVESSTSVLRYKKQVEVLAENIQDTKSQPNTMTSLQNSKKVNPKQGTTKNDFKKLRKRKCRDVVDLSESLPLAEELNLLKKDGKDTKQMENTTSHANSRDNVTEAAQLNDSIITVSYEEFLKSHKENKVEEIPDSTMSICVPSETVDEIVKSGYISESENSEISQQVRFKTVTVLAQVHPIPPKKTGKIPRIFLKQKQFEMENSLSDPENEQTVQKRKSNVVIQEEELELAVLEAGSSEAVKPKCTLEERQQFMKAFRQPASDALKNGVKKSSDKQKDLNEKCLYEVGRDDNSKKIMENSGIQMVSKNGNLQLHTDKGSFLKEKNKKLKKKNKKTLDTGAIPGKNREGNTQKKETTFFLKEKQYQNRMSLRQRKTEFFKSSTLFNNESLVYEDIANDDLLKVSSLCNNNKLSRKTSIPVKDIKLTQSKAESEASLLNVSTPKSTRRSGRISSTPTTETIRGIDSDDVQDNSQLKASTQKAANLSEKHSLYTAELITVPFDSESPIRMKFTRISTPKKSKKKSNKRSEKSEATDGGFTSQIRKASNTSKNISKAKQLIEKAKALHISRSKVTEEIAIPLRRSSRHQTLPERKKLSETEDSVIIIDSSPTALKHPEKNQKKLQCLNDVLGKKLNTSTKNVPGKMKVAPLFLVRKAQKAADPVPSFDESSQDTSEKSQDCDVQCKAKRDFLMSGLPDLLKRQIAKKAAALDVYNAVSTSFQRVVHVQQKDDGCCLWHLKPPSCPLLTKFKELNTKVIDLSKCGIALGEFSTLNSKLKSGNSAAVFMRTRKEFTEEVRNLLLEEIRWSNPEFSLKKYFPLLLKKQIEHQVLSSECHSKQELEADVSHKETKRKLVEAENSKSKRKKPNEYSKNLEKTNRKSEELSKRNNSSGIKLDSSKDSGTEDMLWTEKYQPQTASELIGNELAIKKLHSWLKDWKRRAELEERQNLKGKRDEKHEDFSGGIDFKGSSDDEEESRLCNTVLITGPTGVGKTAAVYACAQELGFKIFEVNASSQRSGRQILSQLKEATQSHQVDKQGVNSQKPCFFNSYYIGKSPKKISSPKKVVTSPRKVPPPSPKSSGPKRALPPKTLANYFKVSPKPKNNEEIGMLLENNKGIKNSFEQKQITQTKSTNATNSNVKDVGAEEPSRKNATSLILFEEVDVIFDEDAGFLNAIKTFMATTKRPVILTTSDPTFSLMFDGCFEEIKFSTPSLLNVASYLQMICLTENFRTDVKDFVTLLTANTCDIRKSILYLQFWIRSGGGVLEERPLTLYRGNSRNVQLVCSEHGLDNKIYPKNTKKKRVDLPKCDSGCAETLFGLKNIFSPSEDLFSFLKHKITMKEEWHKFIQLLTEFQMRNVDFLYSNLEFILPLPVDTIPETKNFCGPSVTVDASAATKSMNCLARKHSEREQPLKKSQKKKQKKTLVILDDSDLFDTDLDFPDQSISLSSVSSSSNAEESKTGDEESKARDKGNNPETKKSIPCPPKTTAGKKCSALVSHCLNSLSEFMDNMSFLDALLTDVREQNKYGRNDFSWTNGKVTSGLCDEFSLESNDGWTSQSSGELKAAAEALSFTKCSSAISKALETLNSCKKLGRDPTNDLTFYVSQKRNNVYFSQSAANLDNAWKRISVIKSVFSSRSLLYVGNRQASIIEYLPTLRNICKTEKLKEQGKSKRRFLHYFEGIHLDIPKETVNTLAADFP
UniProt P34981: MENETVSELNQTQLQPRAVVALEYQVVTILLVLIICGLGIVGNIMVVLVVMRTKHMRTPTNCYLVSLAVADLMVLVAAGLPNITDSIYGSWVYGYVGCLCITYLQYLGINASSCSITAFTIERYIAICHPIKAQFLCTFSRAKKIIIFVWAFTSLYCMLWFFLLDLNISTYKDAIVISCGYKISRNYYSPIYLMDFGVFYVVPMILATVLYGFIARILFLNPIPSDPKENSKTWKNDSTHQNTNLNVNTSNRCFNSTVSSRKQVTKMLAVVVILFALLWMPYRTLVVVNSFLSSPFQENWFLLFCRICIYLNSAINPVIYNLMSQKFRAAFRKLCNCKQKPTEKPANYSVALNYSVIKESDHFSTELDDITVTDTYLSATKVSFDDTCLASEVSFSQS
UniProt P51570: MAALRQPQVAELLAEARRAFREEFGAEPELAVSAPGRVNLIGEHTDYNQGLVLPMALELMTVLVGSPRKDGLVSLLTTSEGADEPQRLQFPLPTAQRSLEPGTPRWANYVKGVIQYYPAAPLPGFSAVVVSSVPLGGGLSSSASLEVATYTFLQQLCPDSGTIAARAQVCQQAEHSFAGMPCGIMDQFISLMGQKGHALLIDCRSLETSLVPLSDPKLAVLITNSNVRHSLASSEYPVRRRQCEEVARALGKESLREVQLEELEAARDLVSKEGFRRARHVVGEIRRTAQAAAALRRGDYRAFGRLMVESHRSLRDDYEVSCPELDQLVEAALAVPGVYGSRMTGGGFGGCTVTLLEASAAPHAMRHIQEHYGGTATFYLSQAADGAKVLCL
UniProt Q13526, whole entry, looked up: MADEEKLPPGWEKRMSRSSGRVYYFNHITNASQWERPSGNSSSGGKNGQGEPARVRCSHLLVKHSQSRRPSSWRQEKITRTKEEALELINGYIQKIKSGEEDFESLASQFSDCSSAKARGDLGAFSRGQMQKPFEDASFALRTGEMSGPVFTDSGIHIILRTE
UniProt O94782: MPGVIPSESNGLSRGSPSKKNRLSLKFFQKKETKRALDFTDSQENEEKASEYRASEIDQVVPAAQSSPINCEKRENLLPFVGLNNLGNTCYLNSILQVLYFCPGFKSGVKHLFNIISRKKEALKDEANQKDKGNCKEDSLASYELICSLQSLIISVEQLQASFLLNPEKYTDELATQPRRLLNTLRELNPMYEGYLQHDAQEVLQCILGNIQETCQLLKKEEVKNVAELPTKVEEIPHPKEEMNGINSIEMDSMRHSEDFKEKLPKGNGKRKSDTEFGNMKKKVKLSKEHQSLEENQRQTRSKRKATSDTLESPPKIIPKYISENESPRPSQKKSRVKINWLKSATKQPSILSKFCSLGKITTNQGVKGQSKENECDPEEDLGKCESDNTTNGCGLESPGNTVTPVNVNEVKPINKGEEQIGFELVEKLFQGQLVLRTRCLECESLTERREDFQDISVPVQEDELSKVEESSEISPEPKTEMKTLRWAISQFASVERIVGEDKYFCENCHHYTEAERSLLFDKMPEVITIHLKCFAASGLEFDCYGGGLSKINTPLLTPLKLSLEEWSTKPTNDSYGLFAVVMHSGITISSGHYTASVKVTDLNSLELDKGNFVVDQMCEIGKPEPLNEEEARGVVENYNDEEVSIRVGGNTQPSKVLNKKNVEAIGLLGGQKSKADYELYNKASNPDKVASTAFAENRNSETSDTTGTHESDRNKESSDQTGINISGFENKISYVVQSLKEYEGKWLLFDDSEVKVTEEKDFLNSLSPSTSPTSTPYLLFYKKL
UniProt Q12809: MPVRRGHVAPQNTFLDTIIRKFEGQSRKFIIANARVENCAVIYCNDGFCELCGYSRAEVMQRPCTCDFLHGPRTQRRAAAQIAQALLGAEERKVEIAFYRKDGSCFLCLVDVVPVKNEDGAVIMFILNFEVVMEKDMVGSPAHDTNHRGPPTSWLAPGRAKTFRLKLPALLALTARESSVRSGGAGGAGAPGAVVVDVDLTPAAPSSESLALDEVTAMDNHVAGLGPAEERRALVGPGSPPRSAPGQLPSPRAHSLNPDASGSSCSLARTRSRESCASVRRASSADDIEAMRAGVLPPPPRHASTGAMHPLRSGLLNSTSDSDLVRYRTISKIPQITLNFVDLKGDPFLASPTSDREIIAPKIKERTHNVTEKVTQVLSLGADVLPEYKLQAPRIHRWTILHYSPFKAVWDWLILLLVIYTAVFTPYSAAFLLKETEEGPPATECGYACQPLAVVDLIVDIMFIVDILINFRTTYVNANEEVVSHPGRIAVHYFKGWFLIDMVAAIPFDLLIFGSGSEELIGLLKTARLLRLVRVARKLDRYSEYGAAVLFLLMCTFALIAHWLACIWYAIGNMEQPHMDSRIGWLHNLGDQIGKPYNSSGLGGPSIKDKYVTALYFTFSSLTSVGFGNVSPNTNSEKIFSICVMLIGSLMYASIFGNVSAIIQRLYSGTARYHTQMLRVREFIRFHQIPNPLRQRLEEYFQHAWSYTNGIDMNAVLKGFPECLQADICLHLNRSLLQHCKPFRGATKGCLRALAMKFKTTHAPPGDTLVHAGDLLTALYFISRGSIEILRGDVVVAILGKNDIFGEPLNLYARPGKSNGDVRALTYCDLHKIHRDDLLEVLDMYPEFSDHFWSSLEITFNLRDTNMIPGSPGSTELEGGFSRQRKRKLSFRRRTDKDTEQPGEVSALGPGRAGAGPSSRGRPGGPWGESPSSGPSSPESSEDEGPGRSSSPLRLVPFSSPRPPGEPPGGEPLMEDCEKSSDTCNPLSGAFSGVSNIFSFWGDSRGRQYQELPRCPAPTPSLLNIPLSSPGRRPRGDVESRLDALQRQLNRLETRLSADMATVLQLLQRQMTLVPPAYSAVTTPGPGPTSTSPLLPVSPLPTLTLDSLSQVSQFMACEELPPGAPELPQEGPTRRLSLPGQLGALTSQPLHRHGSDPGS
UniProt O94925: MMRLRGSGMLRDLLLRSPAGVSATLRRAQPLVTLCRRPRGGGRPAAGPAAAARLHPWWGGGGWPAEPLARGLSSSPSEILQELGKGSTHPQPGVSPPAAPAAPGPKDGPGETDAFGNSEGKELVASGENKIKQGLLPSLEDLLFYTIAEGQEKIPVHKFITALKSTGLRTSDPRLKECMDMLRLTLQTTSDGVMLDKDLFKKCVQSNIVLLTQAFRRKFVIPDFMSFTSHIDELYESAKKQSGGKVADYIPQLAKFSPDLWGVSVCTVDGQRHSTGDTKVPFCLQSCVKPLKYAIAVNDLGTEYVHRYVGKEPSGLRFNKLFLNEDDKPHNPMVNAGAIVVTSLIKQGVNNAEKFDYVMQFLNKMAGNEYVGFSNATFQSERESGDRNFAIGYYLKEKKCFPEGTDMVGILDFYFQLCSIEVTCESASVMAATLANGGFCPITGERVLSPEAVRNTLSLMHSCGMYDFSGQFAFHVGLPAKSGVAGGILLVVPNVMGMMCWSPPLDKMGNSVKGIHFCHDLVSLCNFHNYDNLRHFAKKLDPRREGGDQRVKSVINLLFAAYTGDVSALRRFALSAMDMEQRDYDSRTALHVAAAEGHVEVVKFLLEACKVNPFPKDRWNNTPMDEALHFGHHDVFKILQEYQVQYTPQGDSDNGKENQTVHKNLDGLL
UniProt P43220, whole entry, looked up: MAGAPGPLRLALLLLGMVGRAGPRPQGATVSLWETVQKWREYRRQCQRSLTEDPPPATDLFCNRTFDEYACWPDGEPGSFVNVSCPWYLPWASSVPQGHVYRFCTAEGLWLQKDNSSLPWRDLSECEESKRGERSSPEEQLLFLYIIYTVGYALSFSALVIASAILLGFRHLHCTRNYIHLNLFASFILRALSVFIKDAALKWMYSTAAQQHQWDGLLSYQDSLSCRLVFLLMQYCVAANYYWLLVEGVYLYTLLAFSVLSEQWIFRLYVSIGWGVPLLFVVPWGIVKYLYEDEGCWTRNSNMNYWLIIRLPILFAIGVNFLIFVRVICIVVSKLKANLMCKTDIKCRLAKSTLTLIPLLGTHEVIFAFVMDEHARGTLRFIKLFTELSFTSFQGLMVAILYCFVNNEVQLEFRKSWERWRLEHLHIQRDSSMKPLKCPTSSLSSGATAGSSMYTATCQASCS

How the values were obtained:
[1] = Validation screen for small molecules that induce genotoxicity in human embryonic kidney (HEK293T) cells expressing luciferase-tagged ELG1 (AID 493106); conditions: luminescence; at 46.1 µM (top of the series); also: 0% is about no effect
Method in brief: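 HEK293T cells expressing luciferase-tagged ELG1, 2,000 cells/well, exposed to compound 16 hr at 37 °C, 5% CO2. Luciferase read after ONE-Glo, 30 min at room temperature; increased signal indicates genetic stress.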

[2] = target: ATPase family AAA domain-containing protein 5 (Homo sapiens) (UniProt Q96QE3); assay: Validation screen for small molecules that inhibit ELG1-dependent DNA repair in human embryonic kidney (HEK293T) cells expressing luciferase-tagged ELG1 (AID 493107); conditions: HEK293T ELG1-luciferase level, luminescence, 5-fluorouridine co-treatment, 16 h; at 46.1 µM (top of the series);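 also: cells co-treated with the DNA-damaging agent 5-fluorouridine alongside compound; % is scaled to controls: 0 for no effect and ±100 for the full control effect; inhibitors lower the ELG1-luciferase luminescence signal; nearly all actives have a fitted effect of over 70% in size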
Method in brief: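 HEK293T cells expressing luciferase-tagged ELG1, 2,000 per well, treated with 5-fluorouridine plus compound for 16 h at 37 C. ONE-Glo luminescence after 30 min at room temperature reports ELG1 reporter level.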

[3] = target: Thyrotropin-releasing hormone receptor (Homo sapiens) (UniProt P34981); assay: qHTS for Small Molecule Agonists and Allosteric Enhancers of Human TRH Receptor: Validation Screen for Agonists (AID 493127;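 active = calcium activation more than 3 SD above the typical response in the agonist read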; also: 0% is about no effect); conditions: TRH receptor agonist cell assay; at 2 µM; hits give high values
Method in brief: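 TRHR cells loaded with fluo-8 calcium dye; FDSS kinetic fluorescence (Ex 480/Em 530) read at 1 s/cycle after 23 nL compound addition. Agonist-mode calcium response recorded before the 10 nM TRH (EC20) addition.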

[4] = qHTS for Inhibitors of Cell Surface uPA Generation: Validation Assay (AID 493164); conditions: mouse cells, plasminogen activation; at 38.3 µM (top of the series); also: 0% is about no effect
Method in brief: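 RAW 264.7 cells (4000/well) were plated overnight, then exposed for 18 h at 37 C, 5% CO2 to compounds in a 7-point 1:5 titration (2.45 nM–38.3 uM final). Intracellular ATP was read by ATP-Lite luminescence.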

[5] = target: Galactokinase (Homo sapiens) (UniProt P51570); assay: qHTS Validation Assay for Inhibitors of Human Galactokinase (GALK) (AID 493189); conditions: purified human GALK enzyme activity, qHTS 7-point titration; at 57.5 µM (top of the series); also: 0% is about no effect
Method in brief: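 5 nM GALK / 100 uM galactose / 35 uM ATP, 20 mM HEPES pH8.0, 5 mM MgCl2, 60 mM NaCl, 1 mM DTT, 0.01% BSA (final). RT 1 h; Kinase-Glo Plus luminescence.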

[6] = Validation screen for small molecules that induce DNA re-replication in SW480 colon adenocarcinoma cells (AID 504364); conditions: DNA re-replication phenotype (high-content imaging); at 46.1 µM (top of the series); also: 0% is about no effect
Method in brief: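 SW480 cells (250/well) exposed 48 h at 37 C, 5% CO2, then Hoechst-stained 40 min. Nuclear DNA content imaged by fluorescence scanning (405 nm excitation, 500-530 nm emission); re-replication scored as increased nuclei with elevated intensity.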

[7] = target: Peptidyl-prolyl cis-trans isomerase NIMA-interacting 1 (Homo sapiens) (UniProt Q13526); assay: qHTS Validation Assay to Find Inhibitors of Pin1 (AID 504536; active = well fitted inhibition curve with a large enough effect in the polarisation, with a control signal flat, not every such curve was filed as active; the % refers to the polarisation;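 also: 0% = full Pin1 enzyme wells and -100% = no-enzyme wells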); conditions: Pin1 fluorescence polarization peptide binding assay; at 57.5 µM (top of the series)
Method in brief: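 Fluorescence polarization competition: compounds (titration) displace HiFluor-488-labeled Pin1-1b peptide from Pin1 (0.3 uM final) in pH 7.5 HEPES buffer with DTT, 10 min at room temperature; %Activity normalized to no-enzyme wells, curves fitted.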

[8] = Inducers of the Endoplasmic Reticulum Stress Response (ERSR) in human glioma: Validation (AID 504836); conditions: human glioma cells, ER stress response reporter; at 38.3 µM (top of the series); also: 0% is about no effect
Method in brief: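 ERSR induction read as luciferase luminescence (Bright-Glo, 10 min at room temperature) in stably transfected human U87-MG glioma cells exposed to compounds for 16 h, using GRP78 as sensor.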

[9] = target: Ubiquitin carboxyl-terminal hydrolase 1 (Homo sapiens) (UniProt O94782); assay: Inhibitors of USP1/UAF1: Pilot qHTS (AID 504865); conditions: purified USP1/UAF1, Ub-rhodamine cleavage fluorescence; at 114 µM (top of the series);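 also: rhodamine fluorescence freed from ubiquitin-rhodamine substrate followed over time; top concentration of the series differs between compounds; % is scaled to controls: 0 for no effect and ±100 for the full control effect; nearly all actives have a fitted effect of over 35% in size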
[10] = qHTS for Inhibitors of ATXN expression: Validation of Cytotoxic Assay (AID 588349); conditions: cytotoxicity counter-screen for ATXN expression inhibitors, cell viability; at 57.1 µM (top of the series); also: % is scaled to controls: 0 for no effect and ±100 for the full control effect
Method in brief: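 HEK293 cells treated with titrated compound for 72 hr at 37 degrees C; viability read as intracellular ATP by CellTiter Glo luminescence.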

[11] = qHTS for Inhibitors of ATXN expression: Validation (AID 588378); conditions: cell-based ATXN2 expression reporter assay, luminescence; at 57.1 µM (top of the series); also: % is scaled to controls: 0 for no effect and ±100 for the full control effect; nearly all actives have a fitted effect of over 75% in size
Method in brief: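 Compounds were pinned onto attached HEK293 cells carrying an ATXN2-firefly luciferase construct and incubated 24 hrs at 37 degrees C. Each well then received a fluorescent viability reagent followed by luciferase substrate for end-point luminescence.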

[12] = target: Voltage-gated inwardly rectifying potassium channel KCNH2 (Homo sapiens) (UniProt Q12809); assay: qHTS Assay for Small Molecule Inhibitors of the Human hERG Channel Activity (AID 588834); conditions: U2OS BacMam hERG, FluxOR thallium flux fluorescence; at 46.1 µM (top of the series) unless noted;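 also: U2OS cells transduced with hERG by BacMam; top concentration of the series differs between compounds; % is scaled to controls: 0 for no effect and ±100 for the full control effect; lower thallium flux fluorescence means stronger hERG block; nearly all actives have a fitted effect of over 50% in size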
[13] = target: Glutaminase kidney isoform, mitochondrial (Homo sapiens) (UniProt O94925); assay: qHTS for Inhibitors of Glutaminase (GLS): LOPAC Validation (AID 624146);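 also: glutamate product detected by oxidase and peroxidase coupled Amplex red fluorescence gain; % is scaled to controls: 0 for no effect and ±100 for the full control effect; nearly all actives have a fitted effect of over 60% in size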
Method in brief: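 Assay buffer: 45 mM KH2PO4 pH 8.2, 0.02% Tween-20. hKGA acts on L-glutamine (1 mM solution added); product glutamate is reported by an oxidase/peroxidase Amplex Red coupling, with fluorescence taken at baseline and 30 min.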

[14] = target: Glucagon-like peptide 1 receptor (Homo sapiens) (UniProt P43220); assay: qHTS of GLP-1 Receptor Agonists: LOPAC Validation (AID 624148); conditions: GLP-1R agonist cell assay; at 46.1 µM (top of the series);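 also: luminescence from a luciferase reporter switched on by cAMP; 0% is about no effect; higher luminescence signal means agonism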
Method in brief: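 Agonism scored as increased luciferase luminescence driven by cAMP in HEK293 clones carrying GLP-1R. Cells settled 12 hours, received compound for 4-6 hr at 37 deg C, 5% CO2, and were read after 12 min detection reagent at RT.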

[15] = qHTS of Nrf2 Activators: LOPAC Validation (AID 624149); conditions: Nrf2/ARE reporter cell assay; at 46.1 µM (top of the series); also: 0% is about no effect
Method in brief: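 AREc32_Fluc cells, 1000/well in OPTI-MEM with 5% FBS, grown overnight, then exposed to compounds for 24 hr at 37 deg C, 5% CO2. ARE-driven firefly luciferase read by Steady-Glo luminescence after 30 min at RT.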

[16] = HTS Assay for Allosteric Antagonists of the Human D2 Dopamine Receptor: Hit Validation in HTRF (AID 624455); conditions: D2 receptor cells, HTRF cAMP read-out, antagonist mode; at 46.1 µM (top of the series);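 also: stable D1 dopamine receptor cell line scored for blocking the D1 response; % is scaled to controls: 0 for no effect and ±100 for the full control effect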
Method in brief: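 Hit validation in cells stably expressing the D1 dopamine receptor, run in HTRF format. Compounds were tested for their ability to inhibit the D1-mediated response.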

CN(CCCl)Cc1cc(Cl)c(NC2=NCCN2)c(Cl)c1
inactive: activity change, positive = ELG1 induction [1] -0.542% | activity change, negative = decrease [2] -7.77% | activation [3] 1.56% | activity change [4] 1.06% | activity change, negative = inhibition [5] 4.77% | activity (re-replication induction) [6] 25.3% | activity, negative = inhibition [7] 0.0722% | activation [8] -2.19% | activity change, negative = inhibition [9] -9.54% | activity change, negative = cytotoxicity [10] -18.2% | activity change, negative = inhibition [11] -8.62% | activity change, negative = inhibition [12] -19.8% | Potency [13] | activation [14] -1.67% | activation [15] 1.1% | activity, negative = inhibition [16] 0.436%
